Several values for one entry are separate records, joined by “and”; a condition that tells them apart may be missing. Equal entries are not always repeated. The list shows a part of the results, in another mix than the full data. Some results for these compounds are left out of this collection, so the calls shown say nothing about other tests. Records with an inconclusive call do not appear. Activity calls are given as the source filed them. Calls come from the whole dose curve; as a rule, active = well fitted inhibition curve with a large enough effect; inconclusive = small, poorly fitted or top-dose-only effect; inactive = no such curve, though single readings can be large or run the other way.
biological target: Lysine-specific demethylase 5B (Homo sapiens) (UniProt Q9UGL1); assay: Primary screen for KDM5B Histone Demethylases FDH-coupled qHTS; conditions: FDH-coupled NADH fluorescence (FDH is formaldehyde dehydrogenase); at 57.7 µM (top of the series); note: 0% is about no effect; nearly all actives have a fitted effect of over 70% in size
Text: Assay Submitter (PI): Qin Yan, Ph.D. (Yale University) and Xiaodong Cheng, Ph.D. (MD Anderson) This project was funded as part of the NCI NEXT Program and Chemical Biology Consortium (CBC) The histone demethylases, KDM5A and KDM5B catalyze the demethylation of lysine 4 on histone H3 (H3K4me3/2). They are overexpressed in a variety of cancers and have been implicated in cancer cell growth, metastasis, drug resistance, and tumor growth. KDM5A is amplified and overexpressed in breast and gastric cancer; and is translocated in leukemia. While KDM5B is highly expressed in human mammary tumors and breast cancer cell lines, but not in normal adult breast tissue. Moreover, knockdown of KDM5B leads to upregulation of tumor suppressor genes, including BRCA1. The goal of this project is to employ qHTS to identify selective small molecule inhibitors of KDM5A/B demethylase activity to better understand the role of KDM5 in cancer and to develop novel therapies. We employed an FDH-coupled assay previously reported by Sakurai et al. to monitor in vitro KDM5 demethylase activity. Compounds showing dose response inhibition are re-acquired, validated, and tested for non-specific interference with the formaldehyde dehydrogenase (FDH) counterscreen. True inhibitors are validated using an AlphaLisa secondary screen, which employs an H3K4(me2-1)-specific antibody to monitor demethylation of a biotin-tagged H3K4(me3) peptide substrate. Inhibitors are profiled against KDM4A and KDM6A AlphaLisa counterscreens to determine level of demethylase specificity; and against the TruHits counterscreen to eliminate non-specific inhibitory activity on the AlphaLISA detection method. Selective inhibitors identified from the primary and secondary screening are tested in cells using immunofluorescence to monitor global H3K4 tri-methylation as a measure of KDM5A/B inhibition. Early Translation Branch (ETB) National Center for Advancing Translational Sciences (NCATS), Rockville, MD National Institute of Health (NIH), Bethesda, Maryland [1] Sakurai, M et al. A miniaturized screen for inhibitors of Jumonji histone demethylases. Mol Biosyst. 2010 Feb;6(2):357-64. doi: 10.1039/b912993f. Epub 2009 Oct 8.
Materials: 1536-well Black, solid bottom, medium binding assay plate is purchased from Greiner Bio-one. The enzymes (KDM5B) and substrate (H3K4me3/2) are provided by the principal investigators. The buffer for this assay is composed of 50mM HEPES at pH 7.5 with 0.01% Tween-20. FDH coupled Demethylase qHTS protocol: Three microliter enzyme mix (buffer + 200nM KDM5BDeltaAP final concentration) is dispensed into the assay plate using the BioRAPTR Flying Reagent Dispenser (FRD; […]). Compound (at various final concentration) and control solution is pin transferred to the assay plate using the Kalypsys 1536-pin tool apparatus. The assay plate is incubated for 10 min at room temperature followed by addition of 1uL substrate mix (buffer + 100uM ascorbic acid, 50uM ferrous ammonium sulfate, 12.5uM H3K4Me3, 25uM a-ketoglutarate, 0.25 mM NAD+, 0.25 U/mL formaldehyde dehydrogenase using the FRD yielding a total reaction volume of 4 uL. Initial fluorescence (Read1) is detected using the PerkinElmer ViewLux plate reader equipped with 340 nm excitation and 450 nm emission filters. The final fluorescence (Read2) signal is obtained after 30 min of room temperature incubation. Delta RFU is calculated (Read2 - Read1) and is used to generated dose response curves.

Protein sequences, listed by entry. Tags and fused reporters are not part of them.
UniProt Q9UGL1, whole entry: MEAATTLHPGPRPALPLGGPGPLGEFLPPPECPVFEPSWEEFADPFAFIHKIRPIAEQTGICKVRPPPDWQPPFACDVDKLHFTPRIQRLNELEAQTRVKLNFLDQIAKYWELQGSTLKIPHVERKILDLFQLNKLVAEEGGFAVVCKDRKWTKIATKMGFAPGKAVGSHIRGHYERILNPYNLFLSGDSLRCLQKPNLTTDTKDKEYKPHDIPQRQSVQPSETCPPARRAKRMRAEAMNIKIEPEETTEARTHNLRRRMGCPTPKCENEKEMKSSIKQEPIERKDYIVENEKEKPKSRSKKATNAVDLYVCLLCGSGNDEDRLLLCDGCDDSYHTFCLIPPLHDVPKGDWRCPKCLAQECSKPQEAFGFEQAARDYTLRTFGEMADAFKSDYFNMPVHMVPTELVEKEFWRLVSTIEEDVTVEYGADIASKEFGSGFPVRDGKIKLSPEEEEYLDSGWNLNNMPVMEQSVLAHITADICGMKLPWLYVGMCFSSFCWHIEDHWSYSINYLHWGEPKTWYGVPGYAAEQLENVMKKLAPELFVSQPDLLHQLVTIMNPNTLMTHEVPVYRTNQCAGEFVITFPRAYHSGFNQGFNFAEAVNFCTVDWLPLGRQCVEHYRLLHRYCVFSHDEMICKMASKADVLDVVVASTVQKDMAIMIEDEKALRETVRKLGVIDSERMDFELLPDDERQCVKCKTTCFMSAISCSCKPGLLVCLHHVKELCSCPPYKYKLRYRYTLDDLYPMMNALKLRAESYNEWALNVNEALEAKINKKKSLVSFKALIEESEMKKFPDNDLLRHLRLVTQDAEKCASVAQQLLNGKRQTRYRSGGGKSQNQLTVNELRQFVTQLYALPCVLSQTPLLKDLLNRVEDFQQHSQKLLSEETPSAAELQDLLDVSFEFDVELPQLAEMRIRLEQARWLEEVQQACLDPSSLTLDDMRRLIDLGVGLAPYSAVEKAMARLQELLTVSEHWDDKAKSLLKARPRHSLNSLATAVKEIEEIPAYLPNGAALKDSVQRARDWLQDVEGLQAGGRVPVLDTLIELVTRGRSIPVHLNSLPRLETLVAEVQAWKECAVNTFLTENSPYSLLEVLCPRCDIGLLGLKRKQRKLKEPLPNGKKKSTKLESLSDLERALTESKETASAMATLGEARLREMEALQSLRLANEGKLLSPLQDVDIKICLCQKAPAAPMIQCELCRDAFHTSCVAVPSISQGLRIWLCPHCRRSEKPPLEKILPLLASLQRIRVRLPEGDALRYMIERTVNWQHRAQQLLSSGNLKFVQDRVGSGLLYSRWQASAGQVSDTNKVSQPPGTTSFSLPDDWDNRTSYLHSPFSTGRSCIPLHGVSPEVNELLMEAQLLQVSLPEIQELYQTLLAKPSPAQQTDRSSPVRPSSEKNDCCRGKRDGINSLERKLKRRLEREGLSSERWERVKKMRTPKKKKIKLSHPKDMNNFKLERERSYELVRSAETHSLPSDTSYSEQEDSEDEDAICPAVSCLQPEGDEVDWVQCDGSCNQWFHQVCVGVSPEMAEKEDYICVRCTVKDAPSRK

| Compound | activity change, negative = inhibition |
| --- | --- |
| CCOc1cccc(C(=O)NCC2(N(C)C)CCCCC2)c1 | inactive: -8.73% |
| O=C(NCC1(N2CCCCC2)CCCCC1)c1cccc(Br)c1 | inactive: -3.02% |
| O=C(NCC1(N2CCOCC2)CCCCC1)c1cc(=O)c2ccccc2o1 | inactive: 13.6% |
| CN(C)CCOC(=O)C(O)(c1ccccc1)C1CCCCC1 (stereo not given) | inactive: 3.96% |
| CN(C)C1(CNC(=O)c2cccs2)CCCCC1 | inactive: 8.1% |
| CCCCOc1ccccc1C(=O)NCC1(N(C)C)CCCCC1 | inactive: -6.62% |
| CCOc1ccccc1C(=O)NCC1(N(C)C)CCCCC1 | inactive: -6.86% |
| CN(C)C1(CNC(=O)c2ccccc2[N+](=O)[O-])CCCCC1 | inactive: -22.8% |
| CN(C)C1(CNC(=O)c2ccccc2F)CCCCC1 | inactive: -6.47% |
| CN(C)C1(CNC(=O)c2cccc(Cl)c2)CCCCC1 | inactive: 14.2% |
| CC(CCN(CCCl)CCCl)c1ccccc1 (stereo not given) | inactive: -9.36% |
| O=C(CCC1CCCCC1)N1CCN(C/C=C/c2ccccc2)CC1 | inactive: 6.23% |
| CC(C)Oc1ccc(C(=O)NCC2(N(C)C)CCCCC2)cc1 | inactive: -5.98% and inactive: -1.75% |
| COc1ccc(Br)c(C(=O)NCC2(N3CCCCC3)CCCCC2)c1 | inactive: -7.94% |
| Cc1cccc(C(=O)NCC2(N(C)C)CCCCC2)c1 | inactive: -10.9% |
| COc1cc(C(=O)NCC2(N(C)C)CCCCC2)cc(OC)c1OC | inactive: 2.24% |
| CC(C)COc1ccc(C(=O)NCC2(N(C)C)CCCCC2)cc1 | inactive: -4.92% |
| COc1cccc(C(=O)NCC2(N3CCOCC3)CCCCC2)c1 | inactive: -20.5% |
| COc1ccc(C(=O)NCC2(N(C)C)CCCCC2)cc1Cl | inactive: -8.06% |
| COc1cc(C(=O)NCC2(N(C)C)CCCCC2)c([N+](=O)[O-])cc1OC | inactive: -3.29% |
